This is a selection; strong and weak results do not stand in their true shares. Active and inactive are the calls of the source.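 How the source made its calls: active means ratio B-score over 3 SD below the library mean, with starting fluorescence within 5 SD of its mean; inactive means the rest, inconclusive results apart.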
molecular target: Potassium channel subfamily K member 9 (Homo sapiens) (UniProt Q9NPC2); experiment: KCNK9 potassium channel inhibitors, primary screen, HEK293 cells, thallium flux (AID 488922); conditions: HEK293 KCNK9, FluxOR thallium flux fluorescence; at 10 µM

Sequences of proteins named here, by UniProt entry; tags and fusion partners are left off.
UniProt Q9NPC2, whole entry: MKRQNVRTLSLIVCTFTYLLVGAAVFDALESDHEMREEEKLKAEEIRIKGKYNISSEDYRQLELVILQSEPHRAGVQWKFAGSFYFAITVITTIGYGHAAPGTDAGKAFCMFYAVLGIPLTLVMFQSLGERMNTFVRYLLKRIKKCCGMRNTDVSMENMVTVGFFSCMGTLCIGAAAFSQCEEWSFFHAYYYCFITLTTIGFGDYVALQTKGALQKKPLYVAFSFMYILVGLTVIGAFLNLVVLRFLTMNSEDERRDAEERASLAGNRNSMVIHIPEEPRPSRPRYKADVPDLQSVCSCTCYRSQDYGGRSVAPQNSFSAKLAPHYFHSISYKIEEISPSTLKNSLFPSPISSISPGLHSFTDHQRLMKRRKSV

SMILES | outcome
CC(=O)NC(SC(=S)N(CC(C)C)CC(C)C)C(Cl)(Cl)Cl (configuration not stated) | inactive
COC(=O)c1cc2c(s1)N=C(c1ccccc1)N(C)P2(=O)N1CCOCC1 (configuration not stated) | inactive
COc1ccc(OP(C)(=O)Nc2ccc(SC(F)(F)F)cc2)cc1 (configuration not stated) | inactive
CCOC(=O)c1ccc(NP(C)(=O)Oc2ccc(F)cc2)cc1 (configuration not stated) | inactive
CCOC(=O)NC(Sc1ccccc1)C(Cl)(Cl)Cl (configuration not stated) | inactive
Cc1ccc(NP(=O)(Oc2cccc(C)c2)Oc2cccc(C)c2)nc1 | inactive
c1ccc(-c2nn[nH]n2)c(-c2nn[nH]n2)c1 | inactive
O=C(NC1CCS(=O)(=O)C1)NP(=S)(Oc1ccccc1)Oc1ccccc1 (configuration not stated) | inactive
CCNC(=S)/N=C(\N)N[N+](=O)[O-] | inactive
O=C(OC1CN2CCC1CC2)c1cccc(Cl)c1 (configuration not stated) | inactive
Nc1ccc([As](=O)(O)c2ccc([N+](=O)[O-])cc2)cc1 | inactive
C(Cc1nn[nH]n1)Cc1nn[nH]n1 | inactive
O=[N+]([O-])c1cc([N+](=O)[O-])c(NCC2CCS(=O)(=O)C2)c([N+](=O)[O-])c1 (configuration not stated) | inactive
Cc1cc(-c2cccc3ccccc23)c(C)cn1.O=[N+]([O-])c1cc([N+](=O)[O-])c(O)c([N+](=O)[O-])c1 | inactive
O=[As](O)(c1ccccc1)c1ccc(O)cc1 | inactive
O=[N+]([O-])c1ncn(CCn2cnc([N+](=O)[O-])n2)n1 | inactive
O=[N+]([O-])c1ccc(OP2(=O)COCCO2)cc1 (configuration not stated) | inactive
CC(=O)NC(SC(=S)N(C)C)C(Cl)(Cl)Cl (configuration not stated) | inactive
O=[N+]([O-])c1ccc(O)c(/C=N/Nc2ccc([N+](=O)[O-])cc2[N+](=O)[O-])c1 | inactive
COc1ccc(NP(C)(=O)Oc2ccccc2OC)cc1 (configuration not stated) | inactive
C[C@H]1OP(=O)(Oc2ccccc2)[C@H](O)[C@H](O)[C@H]1N=[N+]=[N-] (some centres not stated) | inactive
O=P(Nc1nc2ccccc2s1)(c1ccccc1)c1ccccc1 | inactive
CN(C)CCOC(=O)C(O)(c1ccccc1)C1CCCCC1 (configuration not stated) | inactive
CN(C)C1(CNC(=O)c2ccc(Cl)c(S(N)(=O)=O)c2)CCCCC1 | inactive
O=P(Nc1ccccn1)(c1ccc(Br)cc1)c1ccc(Br)cc1 | inactive

SMILES | outcome
COc1ccc(OP(C)(=O)Nc2cccc(Br)c2)cc1 (configuration not stated) | inactive
CP(=O)(Nc1ccc2c(c1)OCCO2)Oc1ccccc1 (configuration not stated) | inactive
c1nnnn1CCn1cnnn1 | inactive
CCOP(C)(=S)SCC(=O)NC(C)(CC)C(=O)O (configuration not stated) | inactive
O=P(Nc1nccs1)(c1ccccc1)c1ccccc1 | inactive
CC(C)C(=O)NC(Sc1ccccc1)C(Cl)(Cl)Cl (configuration not stated) | inactive
CP(=O)(Nc1ccc(SC(F)(F)F)cc1)Oc1ccc(F)cc1 (configuration not stated) | inactive
CC1CCN(C(=O)Oc2c(Cl)cc(Cl)c3cccnc23)CC1 | inactive
CN(C)C(=O)OCCc1n(C)cc[n+]1C | inactive
CC(C)=N/N=C(\N)N[N+](=O)[O-] | inactive
CN(C)C(=O)c1c([N+](=O)[O-])cc([N+](=O)[O-])cc1[N+](=O)[O-] | inactive
CP(=O)(Nc1ccc(Cl)cc1)Oc1ccc(F)cc1 (configuration not stated) | inactive
CCN(/C(=N/P(=O)(N1CCOCC1)N1CCOCC1)N1CCOCC1)c1ccc(OC)cc1 | inactive
C[N+]1=C2C=CC=CC=C2SC12C([N+](=O)[O-])=CC([N+](=O)[O-])=C[C-]2[N+](=O)[O-] (configuration not stated) | inactive
Nc1ccc([As](=O)(O)c2ccc(N)cc2)cc1 | inactive
CC(C)(C)c1ccc(OP(C)(=O)O)cc1 | inactive
COc1ccccc1OP(C)(=O)Nc1ccccc1Br (configuration not stated) | inactive
O=[N+]([O-])c1cc([N+](=O)[O-])c(CCNc2ccccc2)c([N+](=O)[O-])c1 | inactive
CCc1nc2c(n1)c1c(non1O)c1c2no[n+]1[O-] | inactive
CCc1ccc(OP(C)(=O)Nc2cccnc2)cc1 (configuration not stated) | inactive
Cc1ccc(NP(=O)(Oc2ccccc2)Oc2ccccc2)nc1 | inactive
CP(=O)(Oc1ccccc1)N1CCOC1=O (configuration not stated) | inactive
O=C(OCCCN1CCCC1)C(O)(c1ccccc1)C1CCCCC1 (configuration not stated) | inactive
COc1ccccc1OP(C)(=O)Nc1c(C)n(C)n(-c2ccccc2)c1=O (configuration not stated) | inactive
CC(=O)N1C2C3N(C(C)=O)C1C1N(C(C)=O)C(C(N1C(C)=O)N3C(C)=O)N2C(C)=O | inactive

SMILES | outcome
O=[N+]([O-])c1cccc2n[nH]nc12 | inactive
COc1ccc(C2=NCC(CBr)S2)cc1 (configuration not stated) | inactive
COc1ccc(OP(C)(=O)Nc2ccc(Br)cc2)cc1 (configuration not stated) | inactive
CCN(CC)CC(O)COC(=O)C(O)(c1ccccc1)C1CCCCC1 (configuration not stated) | inactive
O=C(O)CNc1ccc([As](=O)(O)O)cc1 | inactive
O=[N+]([O-])c1cccc(NC2=NCC(CBr)S2)c1 (configuration not stated) | inactive
O=[N+]([O-])c1ncn(CCn2ncnc2[N+](=O)[O-])n1 | inactive
CC(C)(C)C(=O)NC(Sc1ccncn1)C(Cl)(Cl)Cl (configuration not stated) | inactive
CP(=O)(OC12CC3CC(CC(C3)C1)C2)OC12CC3CC(CC(C3)C1)C2 | inactive
O=C(Nc1cc([As](=O)(O)O)ccc1O)c1ccccc1 | inactive
CCOC(=O)c1ccc(NP(C)(=O)Oc2ccc(Cl)cc2)cc1 (configuration not stated) | inactive
Nc1ccc2c(ccc3cccnc32)n1.O=[N+]([O-])c1cc([N+](=O)[O-])c(O)c([N+](=O)[O-])c1 | inactive
CP(=O)(OCCOc1ccccc1)OCCOc1ccccc1 | inactive
CP(=O)(Nc1ccc(Cl)cc1Cl)Oc1ccccc1 (configuration not stated) | inactive
Nc1cccc2ccc([As](=O)(O)O)cc12 | inactive
CCN(N=Nc1nonc1N)c1nonc1N | inactive
O=[N+]([O-])c1cc([N+](=O)[O-])c(CCN2CCOCC2)c([N+](=O)[O-])c1 | inactive
Cc1nc2ccc3ccccc3c2o1.O=[N+]([O-])c1cc([N+](=O)[O-])c(O)c([N+](=O)[O-])c1 | inactive
COc1ccc(OP(C)(=O)Nc2ccccc2Br)cc1 (configuration not stated) | inactive
CN(C(=O)Cc1ccc(Cl)c(Cl)c1)[C@H]1CCCC[C@@H]1N1CCCC1 | inactive
Cc1ccc(NP(=O)(Oc2ccccc2F)Oc2ccccc2F)nc1 | inactive
COc1ccccc1OP(C)(=O)Nc1ccc(C)c(C)c1 (configuration not stated) | inactive
CCOP(=O)(Nc1ccccc1)OCC | inactive
Cc1cc(SC(NC(=O)c2ccc(F)cc2)C(Cl)(Cl)Cl)ncn1 (configuration not stated) | inactive
Cc1cc(C)cc(OP(C)(=O)Nc2cccc(C(F)(F)F)c2)c1 (configuration not stated) | inactive

SMILES | outcome
O=P(Nc1nc2ccc(Cl)cc2s1)(c1ccccc1)c1ccccc1 | inactive
O=C(O)c1ccccc1[As](=O)(O)O | inactive
CC(=O)Nc1ccc([As](=O)(O)O)cc1 | inactive
CCc1ccc(OP(C)(=O)O)cc1 | inactive
COc1ccccc1OP(C)(=O)Nc1ccc(C)cc1C (configuration not stated) | inactive
CP(=O)(Nc1ccccn1)Oc1ccccc1 (configuration not stated) | inactive
Cc1c2non([O-])c-2c(C)[n+](=O)[n+]1[O-] | inactive
O=C(NC(Sc1ccncn1)C(Cl)(Cl)Cl)c1ccccc1 (configuration not stated) | inactive
Oc1ccccc1CNc1ccccn1 | inactive
O=[N+]([O-])c1cc([N+](=O)[O-])c(Nc2ccccn2)c([N+](=O)[O-])c1 | inactive
CC(C)CC(=O)NC(Sc1ccc(Cl)cc1)C(Cl)(Cl)Cl (configuration not stated) | inactive
Nc1cc(N)c2nonc2c1[N+](=O)[O-] | inactive
Cc1c(NP(C)(=O)Oc2ccc(C(C)C)cc2)c(=O)n(-c2ccccc2)n1C (configuration not stated) | inactive
CN(C)CCOC(=O)C(O)(c1ccccc1)C1CCCC1 (configuration not stated) | inactive
Clc1ccc(Cl)c(NC2=NCC(CBr)S2)c1 (configuration not stated) | inactive
CN1CCCC(OC(=O)C(c2ccccc2)c2ccccc2)C1 (configuration not stated) | inactive
Cc1ccc(OP(=O)(Nc2nccs2)Oc2ccc(C)cc2)cc1 | inactive
COc1ccc(OP(C)(=O)Nc2ccccn2)cc1 (configuration not stated) | inactive
COc1ccccc1OP(=O)(Nc1ccc(C)cn1)Oc1ccccc1OC | inactive
Cc1ccc(N/C(=N/P(=O)(N2CCOCC2)N2CCOCC2)N2CCOCC2)cc1 | inactive
COc1ccccc1OP(C)(=O)Nc1ccc(Br)cc1 (configuration not stated) | inactive
NC(=O)c1cc([N+](=O)[O-])cc([N+](=O)[O-])c1N | inactive
